Assay results taken from patent US9029508 (dated 2015).

Sequences of proteins named here, by UniProt entry; tags and fusion partners are left off. A line that says so, or that is headed by a name, gives the form on record, which may keep a tag or linker.
UniProt P15692, other isoform, or with tags, fused parts or gaps: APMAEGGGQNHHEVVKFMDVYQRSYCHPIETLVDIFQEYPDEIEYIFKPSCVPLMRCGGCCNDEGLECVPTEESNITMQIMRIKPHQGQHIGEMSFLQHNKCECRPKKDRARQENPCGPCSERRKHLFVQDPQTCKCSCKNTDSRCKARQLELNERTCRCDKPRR

B1: DVD466 VEGF arm (antibody, V domains shown)
VH: EVQLVESGGGLVQPGGSLRLSCAASGFTISDYWIHWVRQAPGKGLEWVAGITPAGGYTYYADSVKGRFTISADTSKNTAYLQMNSLRAEDTAVYYCARFVFFLPYAMDYWGQGTLVTVSS
VL: DIQMTQSPSSLSASVGDRVTITCRASQDVSTAVAWYQQKPGKAPKLLIYSASFLYSGVPSRFSGSGSGTDFTLTISSLQPEDFATYYCQQSYTTPPTFGQGTKVEIKR
B2: DVD525 VEGF arm (antibody, V domains shown)
VH: B1 VH
VL: B1 VL
B3: DVD531 VEGF arm (antibody, V domains shown)
VH: B1 VH
VL: B1 VL
B4: DVD520 VEGF arm (antibody, V domains shown)
VH: B1 VH
VL: B1 VL
B5: DVD471 VEGF arm (antibody, V domains shown)
VH: B1 VH
VL: B1 VL
B6: DVD483 VEGF arm (antibody, V domains shown)
VH: B1 VH
VL: B1 VL
B7: DVD456 VEGF arm (antibody, V domains shown)
VH: B1 VH
VL: B1 VL
B8: DVD462 VEGF arm (antibody, V domains shown)
VH: B1 VH
VL: B1 VL
B9: DVD490 VEGF arm (antibody, V domains shown)
VH: B1 VH
VL: B1 VL
B10: DVD477 VEGF arm (antibody, V domains shown)
VH: B1 VH
VL: B1 VL
B11: DVD508 VEGF arm (antibody, V domains shown)
VH: B1 VH
VL: B1 VL
B12: DVD507 VEGF arm (antibody, V domains shown)
VH: B1 VH
VL: B1 VL
B13: DVD484 VEGF arm (antibody, V domains shown)
VH: B1 VH
VL: B1 VL
B14: DVD449 VEGF arm (antibody, V domains shown)
VH: B1 VH
VL: B1 VL
B15: DVD450 VEGF arm (antibody, V domains shown)
VH: B1 VH
VL: B1 VL
B16: DVD532 VEGF arm (antibody, V domains shown)
VH: B1 VH
VL: B1 VL
B17: DVD526 VEGF arm (antibody, V domains shown)
VH: B1 VH
VL: B1 VL
B18: DVD495 VEGF arm (antibody, V domains shown)
VH: B1 VH
VL: B1 VL
B19: DVD472 VEGF arm (antibody, V domains shown)
VH: B1 VH
VL: B1 VL
B20: DVD443 VEGF arm (antibody, V domains shown)
VH: B1 VH
VL: B1 VL
B21: DVD489 VEGF arm (antibody, V domains shown)
VH: B1 VH
VL: B1 VL
B22: DVD496 VEGF arm (antibody, V domains shown)
VH: B1 VH
VL: B1 VL
B23: DVD513 VEGF arm (antibody, V domains shown)
VH: B1 VH
VL: B1 VL
B24: DVD455 VEGF arm (antibody, V domains shown)
VH: B1 VH
VL: B1 VL
B25: DVD465 VEGF arm (antibody, V domains shown)
VH: B1 VH
VL: B1 VL
B26: DVD478 VEGF arm (antibody, V domains shown)
VH: B1 VH
VL: B1 VL
B27: DVD519 VEGF arm (antibody, V domains shown)
VH: B1 VH
VL: B1 VL
B28: DVD502 VEGF arm (antibody, V domains shown)
VH: B1 VH
VL: B1 VL
B29: DVD501 VEGF arm (antibody, V domains shown)
VH: B1 VH
VL: B1 VL
B30: DVD444 VEGF arm (antibody, V domains shown)
VH: B1 VH
VL: B1 VL
B31: DVD514 VEGF arm (antibody, V domains shown)
VH: B1 VH
VL: B1 VL
B32: DVD461 VEGF arm (antibody, V domains shown)
VH: B1 VH
VL: B1 VL

Target: VEGF (human, UniProt P15692)
Test: ELISA

Binder | EC50
B1 | 2.61 nM
B2 | 21.8 nM
B3 | 60.4 nM
B4 | 248 nM
B5 | 30.1 nM
B6 | 46.1 nM
B7 | 1.63 nM
B8 | 8 nM
B9 | 6.7 nM
B10 | 41.7 nM
B11 | 7.88 nM
B12 | 34.9 nM
B13 | 4.84 nM
B14 | 15.6 nM
B15 | 12.1 nM
B16 | 28.9 nM

Binder | EC50
B17 | 96.2 nM
B18 | 70 nM
B19 | 9.22 nM
B20 | 611 nM
B21 | 181 nM
B22 | 108 nM
B23 | 58.5 nM
B24 | 26.7 nM
B25 | 396 nM
B26 | 2.72 nM
B27 | 77.2 nM
B28 | 3.25 nM
B29 | 45.2 nM
B30 | 2.44 nM
B31 | 67.4 nM
B32 | 10.4 nM
